Results taken from BindingDB's records for doi:10.1021/jm00009a001 (Cns Research, 1995).

Molecular target: Metabotropic glutamate receptor 1 (Homo sapiens) (UniProt Q13255)
Test: Concentration for half maximal activation of metabotropic glutamate mGluR1b in human

SMILES | pEC50
N[C@@]1(C(=O)O)CC[C@@H](C(=O)O)C1 [SMR001230688] | < 3.00
N[C@@H](Cn1oc(=O)[nH]c1=O)C(=O)O [2-amino-3-(3,5-dioxo[1,2,4]oxadiazolidin-2-yl)propionic acid] | 4.79

pEC50: −log10 of the molar value.
